Laboratory results as given in patent publication US10125125B2, “N-(heteroaryl)-sulfonamide derivatives useful as S100-inhibitors” (Active Biotech AB, priority 2013, dated 2018).

The chains behind the UniProt entries cited, without tags or fusion partners. Where a name states a change or a piece, a line headed by the entry shows the natural chain unless it says otherwise.
UniProt P06702: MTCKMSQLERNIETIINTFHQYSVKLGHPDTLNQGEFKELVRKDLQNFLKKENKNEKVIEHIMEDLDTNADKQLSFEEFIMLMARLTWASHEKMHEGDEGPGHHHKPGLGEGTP

Target: biotinylated human S100A9 : rhRAGE-Fc interaction (Homo sapiens (Human), UniProt P06702)
Assay: AlphaScreen inhibition assay, Biot-hS100A9:hRAGE-Fc (S100A9-RAGE inhibition assay)
Format: binding
Source text: FIG. 1 is a schematic representation of an assay of the inhibition of the interaction between biotinylated human S100A9 and human RAGE-Fc using a small molecule S100A9 binder.
Inhibition Assay, Biot-hS100A9:hRAGE-Fc
The AlphaScreen (Amplified Luminescent Proximity Homogeneous Assay) contains two types of beads, Alpha Donor beads and Acceptor beads (PerkinElmer). Upon laser excitation at 680 nm a photosensitizer in the Donor bead converts ambient oxygen to a more excited singlet state. The singlet oxygen molecule diffuses (maximum 200 nm) to react with a thioxene derivative in the Acceptor bead and generates a chemiluminescence reaction. Fluorophores in the Acceptor bead subsequently emit light at 520-620 nm which can be detected in the EnVision® Multilabel plate Reader (PerkinElmer). […]
In the AlphaScreen Inhibition Assay described here, protein A (Staphylococcus aureus) conjugated Acceptor beads are used together with streptavidin coated Donor beads (Perkin Elmer 6760617M). […] After an additional incubation the signal is measured. […]
Assay concentration of biotinylated hS100A9 and rhRAGE-Fc are batch dependent, and are determined and defined by separate cross-titration experiments using this AlphaScreen inhibition method to verify the optimal setup regarding signal strength and achievement of a defined inhibition with relevant reference compounds. […]

IC50: 3.1 µM
Compound: CC(CO)c1cnc(NS(=O)(=O)c2cnc(Cl)c(Br)c2)c(O)c1 (racemic) [Example 13, (+/−)-5-bromo-6-chloro-N-[3-hydroxy-5-(1-hydroxypropan-2-yl)pyridin-2-yl]pyridine-3-sulfonamide]
